Laboratory results as given in PubChem BioAssay AID652163 (Broad Institute, 2013).
This is a selection; strong and weak results do not stand in their true shares. Some results for these compounds are left out of this collection, so the calls shown say nothing about other tests. Activity calls are given as the source filed them.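 The calls were made as follows: active = mean inhibition of at least 70% across replicates, with every replicate also reaching that level; inconclusive = mean inhibition reaches 70% but some replicates fall short; inactive = mean inhibition below 70%.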

The chains behind the UniProt entries cited, without tags or fusion partners.
UniProt P26447, whole entry: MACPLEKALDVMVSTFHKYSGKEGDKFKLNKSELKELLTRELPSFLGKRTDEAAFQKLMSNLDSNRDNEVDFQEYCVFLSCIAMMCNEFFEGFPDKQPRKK

Biological target: Protein S100-A4 (Homo sapiens) (UniProt P26447)
Assay: human S100A4 protein-peptide interaction blockers – biochemical, fluorescence polarization, TAMRA-MyoIIA peptide, primary screen (AID 652163)
Conditions: at 10.7 µM, hits give high values
Outline: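 Compound dosing: one dose per compound; test system: human S100A4 monomer with TAMRA-labelled myosin IIA peptide; probe or stimulus: TAMRA-labelled myosin IIA heavy-chain peptide probe, 5 nM; medium: HEPES buffer with Ca2+, pH 7.2; schedule: 5 min incubation before reading; benchmarks: neutral control DMSO, positive control TFP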

SMILES	inhibition
O=C(OCCN1CCCC1)C(O)(c1ccccc1)c1ccccc1	inactive: 2.88%
CC(C)Oc1ccc(C(=O)NCC2(N(C)C)CCCCC2)cc1	inactive: -15.5%
COc1ccc(Br)c(C(=O)NCC2(N3CCCCC3)CCCCC2)c1	inactive: -40.8%
C=C(C)C#CC(O)(C(=O)OC1CCN(C)CC1)c1ccccc1 (configuration not stated)	inactive: 0.316%
COc1cc(C(=O)NCC2(N(C)C)CCCCC2)c([N+](=O)[O-])cc1OC	inactive: 3.92%
CN(C)C1(CNC(=O)c2ccc(Br)cc2)CCCCC1	inactive: -4.86%
O=C(NCC1(N2CCCCC2)CCCCC1)c1cccc(Cl)c1	inactive: -24.4%
COc1ccc(Cl)cc1C(=O)NCC1(N(C)C)CCCCC1	inactive: -4.86%
COc1cccc(C(=O)NCC2(N3CCCCC3)CCCCC2)c1	inactive: -8.6%
CN(C)C1CCCC1OC(=O)C(O)(c1ccccc1)c1ccccc1 (configuration not stated)	inactive: -3.14%
CN(C)c1ccc(C(=O)NCC2(N(C)C)CCCCC2)cc1	inactive: -15.4%
Cc1ccccc1C(=O)NCC1(N2CCCCC2)CCCCC1	inactive: -3.3%
O=C(NCC1(N2CCCCC2)CCCCC1)c1cccc(Br)c1	inactive: -5.41%
Cc1cc(C(=O)NCC2(N3CCCCC3)CCCCC2)ccc1[N+](=O)[O-]	inactive: -2.3%
COc1ccc(C(=O)NCC2(N(C)C)CCCCC2)cc1	inactive: 1.26%
O=C(NCC1(N2CCCCC2)CCCCC1)c1cc(F)c(F)cc1Cl	inactive: -8.48%
C=CCN1CCN(CCOC(=O)C(O)(c2ccccc2)c2ccccc2)CC1	inactive: 1.39%
CN1[C@@H]2CC[C@H]1CC(OC(=O)C(O)(c1ccccc1)c1ccccc1)C2 (some centres not stated)	inactive: -5.41%
O=C(NCC1(N2CCCCC2)CCCCC1)c1cc([N+](=O)[O-])ccc1Cl	inactive: -6.8%
Cc1ccc(C(=O)NCC2(N3CCCCC3)CCCCC2)cc1	inactive: -8.1%
COc1cc(SC)ccc1C(=O)NCC1(N(C)C)CCCCC1	inactive: -3.06%
CCN(CC)CC(C)C(C)OC(=O)C(O)(c1ccccc1)c1ccccc1 (configuration not stated)	inactive: -1.53%
